Reference: patent US7723023B2, “Use of intrinsic reporters of cell signaling for high content drug profiling and toxicity screening” (Mount Sinai School of Medicine, priority 2001, dated 2010)

Tested on: serotonin 5-HT2A receptor
Assay: Early gene expression in mouse somatosensory cortex after drug injection, real-time PCR
Format: in vivo
Conditions: 1 h after i.p. exposure

Compound: CCN(CC)C(=O)N[C@H]1C=C2c3cccc4[nH]cc(c34)C[C@H]2N(C)C1 [lisuride]
- Induction of the 8 early genes in serotonin 5HT2A receptor gene-knockout mouse: no induction was observed
